Broadly, the EC50 is the concentration needed to bring the measured effect to its halfway point. High values mean a need for much substance, low ones an effect from little substance.

Protein sequences, listed by entry. Tags and fused reporters are not part of them. Residues count along the entry.
UniProt P43220, 24-463: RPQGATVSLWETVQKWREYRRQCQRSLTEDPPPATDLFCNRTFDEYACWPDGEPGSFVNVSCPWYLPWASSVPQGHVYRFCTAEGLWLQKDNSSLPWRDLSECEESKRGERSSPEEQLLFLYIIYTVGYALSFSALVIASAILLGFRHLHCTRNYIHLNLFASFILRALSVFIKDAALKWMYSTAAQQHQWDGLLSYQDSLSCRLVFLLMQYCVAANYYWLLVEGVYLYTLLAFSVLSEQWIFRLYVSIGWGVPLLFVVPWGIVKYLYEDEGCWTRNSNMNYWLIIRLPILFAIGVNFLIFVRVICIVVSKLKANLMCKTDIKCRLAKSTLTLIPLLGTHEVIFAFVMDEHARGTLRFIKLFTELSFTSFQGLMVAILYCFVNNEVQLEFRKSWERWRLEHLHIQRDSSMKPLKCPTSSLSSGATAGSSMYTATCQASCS

Where two headings read alike, the source gives them in different places.

Common to all, as to format: cell-based
One test concerns the target T1, rat GIPR (Rattus norvegicus, UniProt P43219).
T1 construct: expressed in transfected cells; host or cells: COS-7
T1 sequence (P43219 19-455): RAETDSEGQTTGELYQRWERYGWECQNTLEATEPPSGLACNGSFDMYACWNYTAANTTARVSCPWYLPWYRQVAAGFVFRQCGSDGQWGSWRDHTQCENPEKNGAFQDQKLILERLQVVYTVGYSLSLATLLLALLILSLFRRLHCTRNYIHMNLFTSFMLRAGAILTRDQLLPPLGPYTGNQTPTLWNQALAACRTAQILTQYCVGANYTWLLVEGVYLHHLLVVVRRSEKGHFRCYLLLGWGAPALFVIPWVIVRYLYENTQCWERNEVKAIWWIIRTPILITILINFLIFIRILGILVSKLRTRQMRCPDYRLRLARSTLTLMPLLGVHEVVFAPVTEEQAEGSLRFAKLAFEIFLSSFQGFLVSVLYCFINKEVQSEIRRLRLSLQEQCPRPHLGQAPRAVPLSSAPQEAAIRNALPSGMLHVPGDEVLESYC
Description: HitHunter cAMP assay in transiently transfected COS-7 cells, rat GIPR. As to conditions: COS-7 cells expressing rat GIPR. How it is done: (§1) The next day the assay was initiated by washing with HEPES buffered saline (HBS) and followed by an incubation step with assay buffer (HBS added 1 mM isobutyl-1-methylxanthine (IBMX)) for 30 min at 37° C. The ligands were then added and incubated for an additional 30 min at 37° C. After ligand incubation, the HitHunter® CAMP assay (Eurofins DiscoverX, Fremont, […] USA) was carried out according to the manufacturer's instructions. Luminescence was measured by PerkinElmer™ EnVision 2014 Multilabel Reader (PerkinElmer, Waltham, MA). The potencies (EC50 values) were determined by nonlinear regression using GraphPad Prism 9 (San Diego, California, USA). Sigmoid curves were fitted logistically. The efficacies (Emax values) were determined by normalization to the highest concentration applied of the endogenous ligand for each receptor.
For orientation: Changes in cAMP serve as a functional read-out for many G protein-coupled receptors.

For the next test, the target named is T2, human GLP-2R (Homo sapiens, UniProt O95838).
T2 construct: host or cells: COS-7
T2 sequence (O95838 1-553): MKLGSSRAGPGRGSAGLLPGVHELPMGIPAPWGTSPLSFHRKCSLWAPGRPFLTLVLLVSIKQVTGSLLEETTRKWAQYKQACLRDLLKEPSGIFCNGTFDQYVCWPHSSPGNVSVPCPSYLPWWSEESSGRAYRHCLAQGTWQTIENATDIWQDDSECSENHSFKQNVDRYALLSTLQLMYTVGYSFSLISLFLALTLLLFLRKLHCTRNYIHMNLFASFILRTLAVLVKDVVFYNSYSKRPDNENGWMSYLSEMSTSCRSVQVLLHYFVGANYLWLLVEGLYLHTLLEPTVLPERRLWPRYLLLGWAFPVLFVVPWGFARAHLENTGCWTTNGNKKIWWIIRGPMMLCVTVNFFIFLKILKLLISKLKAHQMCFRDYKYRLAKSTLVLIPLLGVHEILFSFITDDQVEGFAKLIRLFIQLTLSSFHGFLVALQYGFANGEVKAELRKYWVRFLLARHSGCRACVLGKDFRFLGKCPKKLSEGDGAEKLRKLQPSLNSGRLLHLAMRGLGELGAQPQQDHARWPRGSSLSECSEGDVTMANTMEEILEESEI
Description: HitHunter cAMP assay in transiently transfected COS-7 cells, human GLP-2R.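 Note: cells kept 30 min at 37 °C in buffer with 1 mM IBMX, then given ligand for another 30 min at 37 °C before cAMP readout.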

The target in a further test is T3, human GLP-1R (Homo sapiens, UniProt P43220).
T3 construct: host or cells: COS-7
The test can be described thus: HitHunter cAMP assay in transiently transfected COS-7 cells, human GLP-1R. How it is done: as §1

The target of the next test is T4, rat GLP-2R (Rattus norvegicus, UniProt Q9Z0W0).
T4 construct: expressed in transfected cells; host or cells: COS-7
T4 sequence (Q9Z0W0 1-550): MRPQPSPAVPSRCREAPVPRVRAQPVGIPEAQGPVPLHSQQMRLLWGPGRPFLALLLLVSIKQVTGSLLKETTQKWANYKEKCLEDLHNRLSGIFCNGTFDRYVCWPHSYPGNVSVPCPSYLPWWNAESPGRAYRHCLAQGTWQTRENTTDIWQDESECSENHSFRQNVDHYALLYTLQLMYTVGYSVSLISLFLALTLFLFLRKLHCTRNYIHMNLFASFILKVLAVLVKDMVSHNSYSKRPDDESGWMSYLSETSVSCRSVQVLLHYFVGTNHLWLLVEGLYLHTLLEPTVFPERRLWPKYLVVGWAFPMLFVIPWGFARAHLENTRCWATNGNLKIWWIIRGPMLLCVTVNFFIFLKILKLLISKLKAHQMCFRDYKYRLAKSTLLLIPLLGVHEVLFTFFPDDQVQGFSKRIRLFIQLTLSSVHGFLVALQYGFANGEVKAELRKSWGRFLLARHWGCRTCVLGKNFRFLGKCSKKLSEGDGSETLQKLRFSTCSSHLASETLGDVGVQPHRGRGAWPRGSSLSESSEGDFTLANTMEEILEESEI
The test can be described thus: HitHunter cAMP assay in transiently transfected COS-7 cells, rat GLP-2R. As to conditions: COS-7 cells expressing rat GLP-2R. How it is done: as §1

For the next test, the target named is T5, human GIPR (Homo sapiens, UniProt P48546).
T5 sequence (P48546 22-466): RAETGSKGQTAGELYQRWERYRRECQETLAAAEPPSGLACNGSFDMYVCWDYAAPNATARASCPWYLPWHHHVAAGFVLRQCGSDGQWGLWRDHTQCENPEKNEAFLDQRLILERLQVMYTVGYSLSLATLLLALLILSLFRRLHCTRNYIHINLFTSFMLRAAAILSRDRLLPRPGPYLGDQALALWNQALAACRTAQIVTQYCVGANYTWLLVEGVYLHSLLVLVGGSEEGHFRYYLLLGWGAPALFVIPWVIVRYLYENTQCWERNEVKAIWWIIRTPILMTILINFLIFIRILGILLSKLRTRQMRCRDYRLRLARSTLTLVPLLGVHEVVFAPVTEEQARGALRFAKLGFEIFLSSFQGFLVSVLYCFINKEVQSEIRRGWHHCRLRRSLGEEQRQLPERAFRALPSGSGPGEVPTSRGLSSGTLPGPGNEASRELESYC
More on the design: host or cells: COS-7. As to conditions: for Efficacy GIPR: Emax normalized to highest concentration of endogenous ligand. How it is done:
as §1

Setting [1] is: cAMP, COS-7 cells expressing human GLP-2R, Table 2.
The mark [2] stands for this setting: cAMP, COS-7 cells expressing human GLP-1R, Table 3.
Where [3] appears, read: cAMP, COS-7 cells expressing human GIPR, Table 2.
The mark [4] stands for this setting: comparative peptides, human GLP-2R, Table B.
[5] abbreviates: comparative peptides, human GLP-1R, Table C.
Setting [6] is: comparative peptides, human GIPR, Table 4A.

Turning to “H-Aib-DGTFISDY-K(γGlu-C10)-TILDKLAARDFIEWLIATKITK-OH [Compound no. 31]”, on rat GIPR, the “rGIPR pEC50” value was determined as 8.5. On human GLP-2R (setting [1]), a half-maximal response (EC50) required 3.7 nM and the “logEC50 GLP-2R” value is reported as 8.4. Besides, on human GLP-1R (setting [2]), a half-maximal response (EC50) required 39.8 nM and the “logEC50 GLP-1R” value came to 7.4. Further, the “rGLP-2R pEC50” value on rat GLP-2R was found to be 8.9. On human GIPR (setting [3]), a half-maximal response (EC50) required 0.398 nM and the “PEC50 GIPR” value is 9.4.

As to “(C16)HADGTFISDYSTAibLDNLAARDFINWLIQTKITKNDWKHNITQ [Compound no. 53]”, the “rGIPR pEC50” value at rat GIPR was 8.7. Further, the “logEC50 GLP-1R” value at human GLP-1R (setting [2]) was “no activation”. Also, at rat GLP-2R, the “rGLP-2R pEC50” value came out at 7.5. For the same substance, on human GIPR (setting [3]), the EC50 was 0.316 nM and the “PEC50 GIPR” value is 9.5.

As to “H-Aib-DGTFISDY-K(yglu-C10)-T-Aib-LDNLAARDFINWLIQTKITGNDWKHNITQ-OH [Compound no. 54]”, the “rGIPR pEC50” value on rat GIPR was found to be 7.5. For the same substance, on human GLP-2R (setting [1]), the EC50 turned out to be 1.3 nM and the “logEC50 GLP-2R” value is recorded as 8.9. Besides, on human GLP-1R (setting [2]), the 50% effective concentration (EC50) stood at 39.8 nM and the “logEC50 GLP-1R” value is reported as 7.4. Further, on human GIPR (setting [3]), a half-maximal effect (EC50) was put at 1.17 nM and the “PEC50 GIPR” value came out at 8.9.

Consider “(C16-diacid)H-Aib-EGTFISDYST-Aib-LDNLAARDFINWLIQTKITK-OH [Compound no. 19]”, for which, at human GLP-2R (setting [1]), the EC50 came to 2.8 nM and the “logEC50 GLP-2R” value came out at 8.6. Besides, the “logEC50 GLP-1R” value at human GLP-1R (setting [2]) is listed as “no activation”. On human GIPR (setting [3]), the midpoint of the response, the EC50, lay at 0.708 nM and the “PEC50 GIPR” value came out at 9.2.

Turning to “HADGTFISDYSTAibLDK(γGlu-C18-diacid) LAARDFINWLIQTKGKK [Compound no. 62, reference compound]”, on human GLP-2R (setting [4]), the midpoint of the response, the EC50, lay at 1.1 nM and the “logEC50 GLP-2R” value came to 9.0. At human GLP-1R (setting [5]), a half-maximal response (EC50) required 1.26 nM and the “logEC50 GLP-1R” value was 8.9. On human GIPR (setting [6]), the response was half-maximal at 0.147 nM (EC50) and the “pEC50 GIPR” value worked out at 9.8.

As for “(C16)H-Aib-DGTFISDYST-Aib-LDNLAARDFINWLIQTKITK-OH [Compound no. 5]”, at human GLP-2R (setting [1]), a half-maximal response (EC50) required 1.1 nM and the “logEC50 GLP-2R” value is 9.0. Besides, on human GLP-1R (setting [2]), the EC50 amounted to 15.8 nM and the “logEC50 GLP-1R” value turned out to be 7.8. On human GIPR (setting [3]), the response was half-maximal at 0.355 nM (EC50) and the “PEC50 GIPR” value was found to be 9.5.

As for “(C16)HADGTFISDYSTILDNLAARDFINWLIATKITKNDWKHNITQ [Compound no. 52]”, at human GLP-2R (setting [1]), the EC50 stood at 7.9 nM and the “logEC50 GLP-2R” value is recorded as 8.1. The “logEC50 GLP-1R” value at human GLP-1R (setting [2]) is given as “no activation”. Besides, at human GIPR (Table 2), the “Efficacy GIPR” value is 96. For the same substance, at human GIPR (setting [3]), the midpoint of the response, the EC50, lay at 0.251 nM and the “PEC50 GIPR” value worked out at 9.6.

As for “(C16-diacid)H-Aib-DGTFISDYST-Aib-LDNLAARDFINWLIQTKITK-OH [Compound no. 17]”, at human GLP-2R (setting [1]), the 50% effective concentration (EC50) is 1.7 nM and the “logEC50 GLP-2R” value stood at 8.8. On human GLP-1R (setting [2]), the “logEC50 GLP-1R” value is listed as “no activation”. For the same substance, at human GIPR (setting [3]), the EC50 came out at 0.681 nM and the “PEC50 GIPR” value was determined as 9.2.

“(C16-diacid)H-Aib-DGTFISDYST-Aib-LDALAARDFIEWLIQTKITK-OH [Compound no. 20]”: on human GLP-2R (setting [1]), the response was half-maximal at 1.3 nM (EC50) and the “logEC50 GLP-2R” value came out at 8.9. Besides, the “logEC50 GLP-1R” value on human GLP-1R (setting [2]) is “no activation”. Moreover, at human GIPR (setting [3]), the EC50 turned out to be 0.858 nM and the “PEC50 GIPR” value is on record as 9.1.

Take “H-Aib-DGTFISDY-K(γGlu-C16)-TILDNLAARDFINWLIQTKITK-OH [Compound no. 11]”: the “rGIPR pEC50” value on rat GIPR is 8.6. For the same substance, the “rGLP-2R pEC50” value at rat GLP-2R came out at 8.4.

As to “(C16-diacid)H-Aib-DGTFISDYST-Aib-LDNLAAKDFINWLIQTKITKNDWKHNITQ-OH [Compound no. 42]”, on human GLP-2R (setting [1]), the EC50 came out at 2.8 nM and the “logEC50 GLP-2R” value stood at 8.6. Also, the “logEC50 GLP-1R” value on human GLP-1R (setting [2]) is “no activation”. Also, the “Efficacy GIPR” value on human GIPR (Table 2) is recorded as 91. On human GIPR (setting [3]), the EC50 stood at 0.891 nM and the “PEC50 GIPR” value is reported as 9.1.

Values taken from patent US20250304643A1, “PEPTIDE DUAL AGONISTS OF GIPR AND GLP2R” (BAINAN BIOTECH APS, priority 2021, published 2025).
